Molecules are shown by their SMILES.

The source of these data is ChEMBL document CHEMBL1138021, “Isoxazole carboxylic acids as protein tyrosine phosphatase 1B (PTP1B) inhibitors” (Bioorg Med Chem Lett, 2004).

The experiment has as its target T1, Tyrosine-protein phosphatase non-receptor type 1 (Mus musculus, UniProt P35821).
T1 sequence (P35821 whole entry): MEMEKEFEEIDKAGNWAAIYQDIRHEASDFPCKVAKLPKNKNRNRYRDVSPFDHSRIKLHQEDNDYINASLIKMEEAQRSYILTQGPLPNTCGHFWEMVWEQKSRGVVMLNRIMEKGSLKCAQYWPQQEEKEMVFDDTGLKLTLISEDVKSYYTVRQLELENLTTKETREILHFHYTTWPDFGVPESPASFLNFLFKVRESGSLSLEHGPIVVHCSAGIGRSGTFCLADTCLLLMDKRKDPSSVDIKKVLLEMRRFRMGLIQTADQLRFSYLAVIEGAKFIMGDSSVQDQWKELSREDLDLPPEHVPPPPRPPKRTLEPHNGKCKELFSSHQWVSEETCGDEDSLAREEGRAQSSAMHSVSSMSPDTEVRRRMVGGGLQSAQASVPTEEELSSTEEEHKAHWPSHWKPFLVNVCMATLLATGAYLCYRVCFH
Description: Binding affinity for mouse protein-tyrosine phosphatase 1B (PTP1B) expressed in COS 7 cells. The format is cell-based.

Consider `COC(=O)c1c(O)cccc1OC/C=C/c1ccc(F)c(-c2cc(C(=O)O)no2)c1`, for which the affinity, expressed as Ki, was 6.9 µM. This counts as single-digit micromolar.
